Results published in article PMC11286758.
This is one part of the list.

Protein sequences, listed by entry. Tags and fused reporters are not part of them.
UniProt Q13216, whole entry: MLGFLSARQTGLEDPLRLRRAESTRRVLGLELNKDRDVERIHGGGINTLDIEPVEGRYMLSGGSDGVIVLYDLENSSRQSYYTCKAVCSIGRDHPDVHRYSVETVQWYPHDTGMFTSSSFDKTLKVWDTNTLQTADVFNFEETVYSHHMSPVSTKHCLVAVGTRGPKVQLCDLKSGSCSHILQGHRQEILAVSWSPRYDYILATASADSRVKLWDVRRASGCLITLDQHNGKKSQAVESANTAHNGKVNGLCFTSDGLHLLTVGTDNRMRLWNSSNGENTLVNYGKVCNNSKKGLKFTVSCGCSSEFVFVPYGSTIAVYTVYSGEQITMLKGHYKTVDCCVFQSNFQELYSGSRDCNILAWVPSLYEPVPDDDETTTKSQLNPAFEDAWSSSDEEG
UniProt Q2YD98, whole entry: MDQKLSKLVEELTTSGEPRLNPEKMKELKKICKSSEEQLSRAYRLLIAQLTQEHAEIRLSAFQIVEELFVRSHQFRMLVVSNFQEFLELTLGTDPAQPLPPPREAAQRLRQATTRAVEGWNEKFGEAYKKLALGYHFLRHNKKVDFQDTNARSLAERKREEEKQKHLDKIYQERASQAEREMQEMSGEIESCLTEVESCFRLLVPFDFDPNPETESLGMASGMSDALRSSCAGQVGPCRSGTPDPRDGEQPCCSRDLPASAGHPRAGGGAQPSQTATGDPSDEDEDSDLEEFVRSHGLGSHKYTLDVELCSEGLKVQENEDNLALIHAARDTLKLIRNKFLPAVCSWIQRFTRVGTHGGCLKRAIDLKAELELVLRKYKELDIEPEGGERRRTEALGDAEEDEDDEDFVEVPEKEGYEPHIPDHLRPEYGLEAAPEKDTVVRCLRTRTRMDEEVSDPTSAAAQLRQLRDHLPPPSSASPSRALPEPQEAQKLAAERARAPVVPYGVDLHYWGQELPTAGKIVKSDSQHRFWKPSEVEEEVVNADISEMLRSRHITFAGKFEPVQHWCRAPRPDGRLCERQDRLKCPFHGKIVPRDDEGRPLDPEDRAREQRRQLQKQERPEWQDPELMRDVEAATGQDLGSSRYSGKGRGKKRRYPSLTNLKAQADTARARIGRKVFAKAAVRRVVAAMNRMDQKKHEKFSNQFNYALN
DNA excision repair protein ERCC-6, UniProt Q03468, whole entry: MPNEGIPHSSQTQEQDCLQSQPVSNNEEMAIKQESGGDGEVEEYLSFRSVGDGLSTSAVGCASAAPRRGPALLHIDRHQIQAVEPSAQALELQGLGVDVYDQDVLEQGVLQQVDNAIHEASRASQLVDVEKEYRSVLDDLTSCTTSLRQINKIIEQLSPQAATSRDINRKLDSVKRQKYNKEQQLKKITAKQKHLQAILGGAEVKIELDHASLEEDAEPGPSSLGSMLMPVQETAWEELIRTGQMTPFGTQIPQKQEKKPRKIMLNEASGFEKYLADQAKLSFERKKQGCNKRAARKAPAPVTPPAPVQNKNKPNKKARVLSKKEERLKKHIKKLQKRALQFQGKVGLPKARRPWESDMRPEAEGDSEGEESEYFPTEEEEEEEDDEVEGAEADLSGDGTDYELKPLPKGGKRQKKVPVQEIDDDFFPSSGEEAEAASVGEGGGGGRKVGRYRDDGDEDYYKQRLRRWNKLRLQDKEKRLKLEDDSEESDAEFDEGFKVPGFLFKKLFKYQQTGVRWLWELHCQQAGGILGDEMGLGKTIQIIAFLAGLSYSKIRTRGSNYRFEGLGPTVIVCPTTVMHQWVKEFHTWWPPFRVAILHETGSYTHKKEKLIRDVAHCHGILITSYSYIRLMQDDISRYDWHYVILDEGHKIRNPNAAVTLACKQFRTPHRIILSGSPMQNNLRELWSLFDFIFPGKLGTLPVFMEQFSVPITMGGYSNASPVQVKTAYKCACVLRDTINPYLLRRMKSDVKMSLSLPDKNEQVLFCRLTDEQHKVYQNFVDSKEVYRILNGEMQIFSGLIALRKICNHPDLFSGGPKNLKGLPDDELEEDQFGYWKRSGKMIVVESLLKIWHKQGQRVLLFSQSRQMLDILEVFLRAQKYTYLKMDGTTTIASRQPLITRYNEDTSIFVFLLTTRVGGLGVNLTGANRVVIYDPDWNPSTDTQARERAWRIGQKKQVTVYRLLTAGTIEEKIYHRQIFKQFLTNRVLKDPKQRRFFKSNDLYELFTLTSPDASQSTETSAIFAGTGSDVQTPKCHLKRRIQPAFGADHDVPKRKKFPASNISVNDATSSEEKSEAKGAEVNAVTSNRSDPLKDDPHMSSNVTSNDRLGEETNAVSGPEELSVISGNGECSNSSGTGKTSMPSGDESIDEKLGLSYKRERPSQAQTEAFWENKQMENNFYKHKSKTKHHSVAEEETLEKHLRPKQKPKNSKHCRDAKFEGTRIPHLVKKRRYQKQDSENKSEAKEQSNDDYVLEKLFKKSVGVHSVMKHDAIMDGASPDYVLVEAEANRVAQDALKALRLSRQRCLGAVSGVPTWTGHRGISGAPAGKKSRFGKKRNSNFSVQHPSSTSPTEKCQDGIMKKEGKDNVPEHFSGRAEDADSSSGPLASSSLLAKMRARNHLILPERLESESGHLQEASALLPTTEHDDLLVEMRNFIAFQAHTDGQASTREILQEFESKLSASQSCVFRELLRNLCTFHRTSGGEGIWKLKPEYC

How the values were obtained:
[1] = molecular target: DNA excision repair protein ERCC-8 (UniProt Q13216); assay: cross-link between two proteins; cross-linking mass spectrometry
[2] = molecular target: UV-stimulated scaffold protein A (UniProt Q2YD98); assay: as above

DNA excision repair protein ERCC-6, Q03468
listed as a hit [1]: yes
listed as a hit [2]: yes
